# Assay results from US20170217976A1, “6-(AMINO ACID)-MORPHINAN DERIVATIVES IN COMBINATION WITH PERMEATION […] FOR USE AS AN ORALLY, […], TRA[…] NASALLY AD[…]” (C[…], priority 2014, published 2017).
# The chains behind the UniProt entries cited, without tags or fusion partners.
# UniProt P41144, whole entry: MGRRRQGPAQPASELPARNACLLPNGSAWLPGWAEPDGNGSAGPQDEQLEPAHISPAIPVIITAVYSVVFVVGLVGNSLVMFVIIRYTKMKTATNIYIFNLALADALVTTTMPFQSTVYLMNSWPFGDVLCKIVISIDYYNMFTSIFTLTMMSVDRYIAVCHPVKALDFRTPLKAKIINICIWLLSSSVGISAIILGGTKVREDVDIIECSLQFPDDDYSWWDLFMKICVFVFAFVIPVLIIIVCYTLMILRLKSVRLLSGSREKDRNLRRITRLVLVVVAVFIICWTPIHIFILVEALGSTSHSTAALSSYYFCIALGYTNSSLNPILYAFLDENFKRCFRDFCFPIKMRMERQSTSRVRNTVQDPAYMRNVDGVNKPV
# UniProt P33533, whole entry: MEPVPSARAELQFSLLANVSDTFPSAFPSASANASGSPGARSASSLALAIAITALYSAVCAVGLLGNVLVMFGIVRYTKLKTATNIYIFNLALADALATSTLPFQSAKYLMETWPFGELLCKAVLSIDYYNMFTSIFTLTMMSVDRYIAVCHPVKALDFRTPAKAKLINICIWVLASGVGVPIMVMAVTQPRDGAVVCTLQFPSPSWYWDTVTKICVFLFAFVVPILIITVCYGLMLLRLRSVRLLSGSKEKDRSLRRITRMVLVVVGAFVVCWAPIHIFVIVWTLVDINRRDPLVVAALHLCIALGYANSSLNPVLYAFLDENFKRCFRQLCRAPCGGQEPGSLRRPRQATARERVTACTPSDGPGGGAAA
# Columns and labels:
# [1] = target: KOR (Cavia porcellus, UniProt P41144); test: Opioid receptor binding, KOR, guinea pig brain membranes; conditions: read-out: Binding Ki KOR; Table 2-6, guinea pig brain membranes
# [2] = target: DOR (Rattus norvegicus, UniProt P33533); test: Opioid receptor binding, DOR, rat brain membranes; conditions: read-out: Binding Ki DOR; Table 2-6, rat brain membranes
structure (smiles),measurement,setting,value
CO[C@@]12CC[C@H](NCCC(=O)OC(C)(C)C)[C@@H]3Oc4c(O)ccc5c4[C@@]31CCN(CC1CC1)[C@@H]2C5,Ki,[1],1.41 nM
same,Ki,[2],2.1 nM
